Measured values reported in patent publication US20210196782A1 (priority 2015, published 2021).

Sequences of proteins named here, by UniProt entry; tags and fusion partners are left off.
UniProt P41145, whole entry: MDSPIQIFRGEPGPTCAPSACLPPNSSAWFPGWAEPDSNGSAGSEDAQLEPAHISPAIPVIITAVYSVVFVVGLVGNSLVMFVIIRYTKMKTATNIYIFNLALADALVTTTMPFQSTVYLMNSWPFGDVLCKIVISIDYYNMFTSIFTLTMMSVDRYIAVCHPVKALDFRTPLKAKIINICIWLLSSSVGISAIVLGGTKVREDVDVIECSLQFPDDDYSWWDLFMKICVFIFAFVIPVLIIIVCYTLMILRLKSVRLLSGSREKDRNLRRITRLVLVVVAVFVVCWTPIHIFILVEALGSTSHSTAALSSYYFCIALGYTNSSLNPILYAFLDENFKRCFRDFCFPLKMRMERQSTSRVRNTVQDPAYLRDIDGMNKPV
UniProt P41143, whole entry: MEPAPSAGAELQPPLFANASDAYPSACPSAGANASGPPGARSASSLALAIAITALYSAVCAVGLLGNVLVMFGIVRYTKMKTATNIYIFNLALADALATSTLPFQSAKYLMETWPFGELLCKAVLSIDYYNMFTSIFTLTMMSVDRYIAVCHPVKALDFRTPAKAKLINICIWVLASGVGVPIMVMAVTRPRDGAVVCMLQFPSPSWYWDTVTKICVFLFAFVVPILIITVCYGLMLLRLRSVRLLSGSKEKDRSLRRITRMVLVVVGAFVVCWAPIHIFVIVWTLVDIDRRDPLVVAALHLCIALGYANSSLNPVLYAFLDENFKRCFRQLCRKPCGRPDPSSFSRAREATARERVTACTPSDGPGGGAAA
UniProt P33535, whole entry: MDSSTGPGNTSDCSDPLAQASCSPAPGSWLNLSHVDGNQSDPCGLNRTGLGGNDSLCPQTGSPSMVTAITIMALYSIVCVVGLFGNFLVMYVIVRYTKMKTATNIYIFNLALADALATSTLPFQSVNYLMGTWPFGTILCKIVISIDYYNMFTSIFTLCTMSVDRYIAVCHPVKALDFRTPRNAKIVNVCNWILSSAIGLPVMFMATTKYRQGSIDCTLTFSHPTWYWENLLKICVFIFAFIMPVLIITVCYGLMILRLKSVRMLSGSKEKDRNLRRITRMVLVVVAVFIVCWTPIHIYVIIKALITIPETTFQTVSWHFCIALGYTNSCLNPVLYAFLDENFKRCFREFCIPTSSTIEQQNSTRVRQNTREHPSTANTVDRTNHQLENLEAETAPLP

Key:
KOR [1] = biological target: T1, KOR (Homo sapiens, UniProt P41145); experiment: [35S]GTPγS binding assay at KOR, agonist and antagonist modes, CHO cells; settings: for KOR [35S]GTPγS Emax / EC50: agonist mode; for KOR [35S]GTPγS Emax: % relative to 10 μM U50,488 stimulation; for KOR function: in words; for EC50: read-out: KOR [35S]GTPγS EC50, hKOR in CHO cells; for IC50: read-out: KOR [35S]GTPγS IC50, antagonist mode, inhibition of 100 nM U50,488 stimulation
KOR [2] = biological target: T1, KOR; experiment: Radioligand competition binding at KOR with [3H]U69,593, membranes from transfected HEK cells; settings: read-out: Ki KOR [3H]U69,593; [3H]U69,593, Kd=5.3 nM; HEK cell membranes
DOR = DOR (Homo sapiens, UniProt P41143); experiment: Radioligand competition binding at DOR with [3H]DPDPE, membranes from transfected HEK cells; settings: read-out: Ki DOR [3H]DPDPE, Kd=0.50 nM, HEK cell membranes
MOR = MOR (Rattus norvegicus, UniProt P33535); experiment: Radioligand competition binding at MOR with [3H]DAMGO, membranes from transfected HEK cells; settings: read-out: Ki MOR [3H]DAMGO, Kd=0.85 nM, HEK cell membranes

Compound	KOR [35S]GTPγS Emax (KOR [1])	KOR function (KOR [1])	EC50 (KOR [1])	IC50 (KOR [1])	Ki (KOR [2])	Ki (DOR)	Ki (MOR)
CCCC[C@@H](NC(=O)[C@@H](N)Cc1c(C)cc(O)cc1C)C(=O)NCC(=O)N[C@@H](Cc1ccc(F)cc1)C(N)=O	62%	partial agonist	10 nM	250 nM	0.98 nM	0.64 nM	0.15 nM
CCCC[C@@H](NC(=O)[C@@H](N)Cc1c(C)cc(O)cc1C)C(=O)NCC(=O)N[C@@H](Cc1ccc(Cl)cc1)C(N)=O	18%		7 nM	66 nM			
CCCC[C@@H](NC(=O)[C@@H](N)Cc1c(C)cc(O)cc1C)C(=O)NCC(=O)N[C@@H](Cc1ccccc1)C(N)=O	59%	partial agonist	84 nM		5 nM	1.2 nM	0.5 nM

Only a part of the results on these compounds is given; other tests are left out.
